## Antibody variant affinities, Ab-14 light chain, assay B

Data: MIT Lincoln Laboratory AlphaSeq set, Li et al. 2023, doi:10.1038/s41467-023-39022-2, as distributed in FLAb.

Target: peptide PDVDLGDISGINAS, taken from heptad repeat 2 (HR2) of SARS-CoV-2 spike.

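The starting antibody came from a phage panning campaign against this peptide. These sequences belong to a second round, designed from the earlier measurements on random variants of the parent. Group labels follow the data file (Ctrl: baseline library sampled from a position-specific scoring matrix, with some repeated check sequences; GP: Gaussian process model; HC: hill climbing; Gen: genetic algorithm; Gibbs: Gibbs sampling; a sequence that several methods proposed may carry one label only). The assay is AlphaSeq: two haploid yeast populations carry antibody and antigen on their surface. The frequency of each diploid, read from paired DNA barcodes, reflects how well the two displayed proteins bind. A regression on co-assayed BCL2-family reference pairs converts the normalised counts of each replicate to an apparent Kd. The assay was run in six technical replicates.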

Each scFv is VH, three GGGGS repeats, VL, as in the parent Ab-14, and differs from it in the CDRs of the light chain only.
VH: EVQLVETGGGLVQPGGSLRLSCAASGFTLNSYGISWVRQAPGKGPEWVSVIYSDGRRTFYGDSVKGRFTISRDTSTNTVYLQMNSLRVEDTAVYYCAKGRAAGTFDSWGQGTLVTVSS
VL: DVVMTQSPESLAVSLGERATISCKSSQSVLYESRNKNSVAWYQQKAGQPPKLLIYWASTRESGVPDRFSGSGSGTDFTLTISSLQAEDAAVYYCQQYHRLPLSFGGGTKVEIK

The parent's light chain CDRs are KSSQSVLYESRNKNSVA, WASTRES, QQYHRLPLS; each variant's own CDRs replace them letter for letter. Variants here have at most six changes. Kd is apparent (estimated from mating counts) and averaged on the log scale over replicates with a signal. Smaller is tighter. "nd" means that the variant was in the library but no mating with the target was seen in any replicate; the authors take this as a sign of poor binding, and no number exists. A sequence measured in both rounds can read differently, since the two assays cover different ranges. Background: pairings of all light chain designs with three empty control strains gave a value in 4% of cases (median 430 nM, 5th percentile 38 nM). Values in that range, when seen in few replicates, are hard to tell from nonspecific mating. The parent sequence was in this pool as ten entries: three were never detected, three once, and four in most replicates, with averages from 2.2 nM to 240 nM. In the paper, a design with two or fewer of six values counts as a poor binder.

* KLSQSDLYEDRVKNSVA / GASTRES / QQYHRLPLS [GP_HC] -> 1.0 nM (6 of 6 replicates)
* KQSQSVLYESRNKNSVA / EASTRSS / QQYHRLPLS [GP_HC] -> 1.9 nM (6 of 6 replicates)
* KSSQSVLYESRNKNGVA / SASTRES / QQYHRLPSS [Ctrl] -> nd (0 of 6 replicates)
* KIQQSVLYESRNKNSVA / NASTRMS / QQYHRLPLS [GP_Gen] -> 370 pM (6 of 6 replicates)
* KSSISYLYESLNTNSVA / EASTRES / QQYHRLPLS [GP_HC] -> 300 nM (3 of 6 replicates)
* ASSQSGLSESRNKNSVA / DASTRED / QQYHRLPLS [Ctrl] -> 950 pM (6 of 6 replicates)
* KSSQSQLYESRNKNSVA / GASTRES / QDYHRLTLS [GP_HC] -> 850 pM (6 of 6 replicates)
* KSSQSVLYESRNKNSVA / MASTRES / QQYHRLPPS [Ctrl] -> nd (0 of 6 replicates)
* KSSQSVLYDSTNLNSVA / WASTRES / QQYMRLPLD [Ctrl] -> 220 nM (2 of 6 replicates)
* KSSQSVLFESRNKNPVA / SASTRES / QQYHRLPLS [Ctrl] -> 220 nM (3 of 6 replicates)
* KHSQSVLTESRNKNSVA / WASTREF / QQYHRLLLS [Ctrl] -> nd (0 of 6 replicates)
* KLPQSQGYESRNKNSVA / NASQRES / QQYHRLPLS [GP_Gen] -> 1.5 nM (6 of 6 replicates)
* KLSQSMLYESRNKNSVA / HASLRLS / QCYHRLPLS [GP_Gibbs] -> 260 nM (6 of 6 replicates)
* KSSQSVTYESTNKNSVA / WASTRES / QQYHRLPLS [Ctrl] -> 17 nM (6 of 6 replicates)
* KSSNSVLIESRNKNSVA / WASTRES / QQHHRLPLS [Ctrl] -> nd (0 of 6 replicates)
* KSSQSVLYMSENKNSVA / WASTRES / QQYHRLTLS [Ctrl] -> nd (0 of 6 replicates)
* KLSQSVLYESRMKNSVA / NASTREQ / QQYHRLPLS [GP_Gen] -> 470 pM (6 of 6 replicates)
* KFSQEVLYESRTKNSVA / NASTRES / QQYHRLPLS [GP_HC] -> 540 pM (6 of 6 replicates)
* KFSQSVLYESRMSNSVA / NASTRES / QQYHRLPLS [GP_HC] -> 460 pM (6 of 6 replicates)
* KESQSWLYESRNKNSVA / GASTRES / QQYHRLPLS [GP_HC] -> 2.5 nM (6 of 6 replicates)
* KSSQSWLYESRNKNSVA / GASAREV / QQYHRLPLS [GP_HC] -> 5.1 nM (6 of 6 replicates)
* KLSQSHLYESRNSNSVA / NASTRES / QQYHRLPLS [GP_Gen] -> 660 pM (6 of 6 replicates)
* KSGPGVLYESRNKNHVA / GASTRES / QQYHRLPLS [GP_HC] -> 3.3 nM (6 of 6 replicates)
* KSSQSVLYESQNNNSVA / EASTRES / QQYHGLPLS [Ctrl] -> 6.7 nM (6 of 6 replicates)
* KSSQGVDYESRNKNSVA / GASTRES / QQYHRLPLS [GP_HC] -> 2.8 nM (6 of 6 replicates)
* KSSQSVEAESRFKNSVA / WASTRES / QQYHRNPLS [Ctrl] -> nd (0 of 6 replicates)
* KLSQSWLYESRNKNNVA / GASTRES / QQYHRLPLS [GP_Gen] -> 930 pM (6 of 6 replicates)
* KFSQPVLYESRNLNSVA / HASTRES / QQYHRLPLS [Ctrl] -> 64 nM (4 of 6 replicates)
* KSNQSVLYESNFKNSVA / SASTRES / QQYHRLPLS [Ctrl] -> 18 nM (6 of 6 replicates)
* KVSQSVLYESRNKNNVA / GASTRES / QQYHRLPLS [GP_Gen] -> 350 pM (6 of 6 replicates)

Picked from the list: the 5 lowest averages where every replicate gave a value.

CDR-L1	CDR-L2	CDR-L3	group	apparent Kd	seen in
KVSQSVLYESRNKNNVA	GASTRES	QQYHRLPLS	GP_Gen	350 pM	6/6
KIQQSVLYESRNKNSVA	NASTRMS	QQYHRLPLS	GP_Gen	370 pM	6/6
KFSQSVLYESRMSNSVA	NASTRES	QQYHRLPLS	GP_HC	460 pM	6/6
KLSQSVLYESRMKNSVA	NASTREQ	QQYHRLPLS	GP_Gen	470 pM	6/6
KFSQEVLYESRTKNSVA	NASTRES	QQYHRLPLS	GP_HC	540 pM	6/6